This is a selection; strong and weak results do not stand in their true shares. The source made the active and inactive calls. Cut-off read from the data, not from the text of the source: active = activation mostly above about 9.5% (no sharp cut-off); inactive = mostly below about 7.6%.

Chains of the proteins cited; added tags and fusions are not shown.
UniProt P47898, whole entry, looked up: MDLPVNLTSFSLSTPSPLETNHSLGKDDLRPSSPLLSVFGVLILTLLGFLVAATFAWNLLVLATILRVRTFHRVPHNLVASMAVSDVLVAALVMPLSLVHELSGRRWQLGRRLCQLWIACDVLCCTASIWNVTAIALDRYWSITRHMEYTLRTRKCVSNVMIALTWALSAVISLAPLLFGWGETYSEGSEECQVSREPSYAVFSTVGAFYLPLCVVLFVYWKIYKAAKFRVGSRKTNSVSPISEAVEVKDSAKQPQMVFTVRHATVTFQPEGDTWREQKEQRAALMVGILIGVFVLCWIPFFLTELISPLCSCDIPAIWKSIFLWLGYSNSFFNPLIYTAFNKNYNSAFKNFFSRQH

This assay addresses 5-hydroxytryptamine receptor 5A (Homo sapiens) (UniProt P47898). Description: HTR5A agonists in luminescence cell assay, primary screen, counter-screen for OPRM1-OPRD1 heterodimer agonist project, full-deck HTS (AID 504692).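 Note: 0% = cells with vehicle only and 100% = reference agonist.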 The note with it: cell-based, at 9.3 µM, stronger effect = higher value.
Take `c1ccc2c(c1)nc1n2CCN1CCNC1CCCCC1`: the activation was inactive: -7.51%.

On to `COc1cc(NC(=O)Cn2cnc3c(NCc4ccccc4)ncnc32)cc(OC)c1OC`, for which the activation was inactive: 1.92%.

For `Cc1cc2ncn(C3CC(=O)N(Cc4ccccc4)C3=O)c2cc1C` (centres undefined), the activation is inactive: 1.06%.

For `O=[N+]([O-])c1cc(Oc2ccc([N+](=O)[O-])cc2C(F)(F)F)cc([N+](=O)[O-])c1`, the activation is inactive: -0.5%.

For `CN(c1ccccc1)S(=O)(=O)c1cccc(NC(=O)Cn2cnc3c2c(=O)n(C)c(=O)n3C)c1`, the activation is inactive: 2.55%.

For the compound `Cc1ccc(CNC(=O)Cn2cnc3c(OCc4ccccc4)ncnc32)o1`, the activation is inactive: 0.67%.

With `CN(C)CCn1c(=N)n(CC(O)c2ccc(Cl)c(Cl)c2)c2ccccc21` (centres undefined), the activation was inactive: 5.72%.

As to `Nc1nonc1-c1nc2ccccc2n1CC(=O)N1CCN(c2ccc(F)cc2)CC1`, the activation is inactive: 0.64%.

In the case of `COc1cc(NC(=O)[C@@H](NC(=O)N2CCn3c2nc2ccccc23)C(C)C)cc(OC)c1`, the activation is inactive: 0.14%.

Regarding `COC(=O)[C@H](Cc1ccc(O)cc1)NC(=O)Cn1cnc2c(SC)nc(N)nc21`, the activation was inactive: 6.38%.

As for `CC(C)[Si]1(C(C)C)OCC2OC(n3cnc4c(N)ncnc43)C(N)C2O[Si](C(C)C)(C(C)C)O1` (centres undefined), the activation was inactive: 5.89%.

Take `N=c1n(CCN2CCCCC2)c2ccccc2n1CC(O)c1ccc(Cl)c(Cl)c1` (centres undefined): the activation is inactive: -4.36%.

On to `NC(=O)CC(NC(=O)c1cccc(Br)c1)c1ccc(NC2CCN(Cc3ccccc3)CC2)c([N+](=O)[O-])c1` (centres undefined), for which the activation is inactive: -1.41%.

For `CC(C)NC(=O)CSc1nc2ccccc2n1CC(=O)N(C(C)C)C(C)C`, the activation was inactive: 0.16%.

For the compound `Cc1ccc(S(=O)(=O)Nc2ccc(Cl)cc2)cc1NC(=O)Cn1cnc2c1c(=O)n(C)c(=O)n2C`, the activation was inactive: 5.69%.

Turning to `Cc1ccc2c(c1)C1CN(C)CCC1N2C(=O)c1ccco1` (centres undefined), the activation was inactive: 0.85%.

Regarding `O=C(Cn1c(NCCO)nc2ccccc21)Nc1cccc(S(=O)(=O)N2CCCC2)c1`, the activation was inactive: 7.02%.

In the case of `CCN(CC)c1ccc(CNc2nc3ccccc3n2CCN2CCOCC2)cc1`, the activation is inactive: -0.67%.

For the compound `O=C(O)CCc1nn2c3ccccc3n(CCN3CCCCC3)c2nc1=O`, the activation is inactive: 1.21%.

As to `Cc1cnc(NC(=O)Cn2cnc3c2c(=O)n(C)c(=O)n3C)s1`, the activation was inactive: -1.96%.

`Cc1ccc(Cn2nnnc2CN2CCC(n3nnc4cc(C(F)(F)F)ccc43)CC2)cc1`: the activation is inactive: -0.46%.

As for `Cc1ccc(-c2csc(NCCn3c(-c4ccncc4)nc4cc(C(F)(F)F)ccc43)n2)cc1`, the activation was inactive: -1.3%.

Regarding `Nc1nonc1-c1nc2ccccc2n1CC(=O)NC1CCCC1`, the activation was inactive: -2.54%.

As to `CSc1nc(N)nc2c1ncn2CC(=O)NCc1ccc2c(c1)OCO2`, the activation was inactive: 4.66%.

Turning to `CC(C)(C)NC(=O)Cn1c(SCC(=O)NC2CC2)nc2ccccc21`, the activation is inactive: 12.2%.

On to `O=C1C2CCCCC2C(=O)N1c1ccc(NC2CCN(Cc3ccccc3)CC2)c([N+](=O)[O-])c1` (centres undefined), for which the activation was inactive: -4.24%.

Take `O=C(Cn1cnc2c(NCc3ccccc3)ncnc21)NCCCN1CCCC1=O`: the activation was inactive: -1.63%.

As for `Cn1c(=O)c2c(nc(Cl)n2CC(=O)N2CCCCC2)n(C)c1=O`, the activation is inactive: 3.45%.

Consider `Cc1cc(=O)[nH]c(N[N+](=O)[O-])n1`, for which the activation is inactive: -2.06%.

In the case of `CCn1cc(C(=O)N2CCn3c(nc4ccccc43)C2)c(=O)c2ccc(C)nc21`, the activation was inactive: 13.5%.

With `Cn1c(=O)c2c(ncn2CC(=O)Nc2nccs2)n(C)c1=O`, the activation was inactive: 2.9%.

As to `c1ccc2c(c1)ncn2CCN1CCCCC1`, the activation was inactive: -2.19%.

On to `Cc1ccccc1Oc1ccc2c(c1)[C@@H]1C[C@H](N(C)C(=O)c3ccc(C#N)cc3)[C@H]([C@H](C)O)C(=O)N1CC2`, for which the activation is inactive: -3.52%.

As for `O=C(Cn1cnc2ccccc21)NC(c1ccccc1)c1ccccc1`, the activation was inactive: 0.1%.

With `NC(=O)CC(NC(=O)Cc1ccc(Br)cc1)c1ccc(NC2CCN(Cc3ccccc3)CC2)c([N+](=O)[O-])c1` (centres undefined), the activation is inactive: 2.23%.

With `NC(=O)CS(=O)(=O)c1nc2ccccc2n1CC(=O)N1CCCCC1`, the activation is inactive: 9.63%.

Regarding `Cc1ccc(S(=O)(=O)N2CCCCC2)cc1NC(=O)Cn1cnc2c1c(=O)n(C)c(=O)n2C`, the activation was inactive: -5.24%.

Consider `O=C(CCCCCNC(=O)N1CCn2c1nc1ccccc12)N[C@@H](C(=O)O)c1ccccc1`, for which the activation is inactive: 3.86%.

`Cc1c2c(nc3ccccc13)SC(C(Cl)Cl)C2` (centres undefined): the activation was inactive: -3.31%.

For `COc1ccc2nc(NP(=O)(c3ccccc3)c3ccccc3)sc2c1`, the activation was inactive: -3.34%.

For the compound `Cn1c(=O)[nH]c(=O)c2c1nc(CN1CCN(c3ccc(F)cc3)CC1)n2CCN1CCOCC1`, the activation is inactive: 0.06%.

Take `CCCn1c(=O)[nH]c(=O)c2c1nc(-c1ccc3c(c1)OCCO3)n2CCN1CCOCC1`: the activation is inactive: -2.31%.

Take `CC(C)N(C(=O)Cn1c(-c2ccccc2Cl)nc2ccccc21)c1ccccc1`: the activation was inactive: 0.31%.

As for `Cn1c(=O)[nH]c(=O)c2c1nc(N1CCCCCC1)n2CCN1CCCCCC1`, the activation was inactive: 1.01%.

On to `Cc1ccc(/C=N/NC(=O)Cn2cnc3ccccc32)o1`, for which the activation is inactive: 8.34%.

For `Cc1ccc(NC(=O)Cn2cnc3c(OCc4ccccc4)ncnc32)cc1C`, the activation was inactive: -1.41%.

Take `CSCC[C@H](NC(=O)N1CCn2c1nc1ccccc12)C(=O)NCc1ccccc1`: the activation is inactive: -3.06%.

Turning to `C(=N\c1nc2ccccc2n1CCN1CCCCC1)/c1cccs1`, the activation is inactive: 3.92%.

For `CCOC(=O)c1cccc(NC(=O)Cn2c(CC(=O)NC)nc3ccccc32)c1`, the activation was inactive: -3.17%.

Turning to `COc1cc(I)ccc1[As](=O)(O)O`, the activation was inactive: -2.23%.

With `c1ccc(CN2CCC(Nc3nc(-c4ccccc4)nc4ccccc34)CC2)cc1`, the activation is inactive: 8.91%.

`CC(O)CNc1nc2ccccc2n1CC(=O)N1CCN(Cc2ccccc2)CC1` (centres undefined): the activation was inactive: -1.66%.

As for `CCCCNc1nc2ccccc2n1CC(=O)Nc1c(C)cccc1CC`, the activation is inactive: 3.04%.

Regarding `COc1cccc(NC(=O)[C@@H](NC(=O)N2CCn3c2nc2ccccc23)C(C)C)c1`, the activation was inactive: 4.01%.

With `O=P1(N(CCCl)CCCl)OCCCN1CCCl` (centres undefined), the activation is inactive: -1.59%.

For the compound `O=P1(N(CCCl)CCCl)Nc2ccccc2N1`, the activation was inactive: -0.77%.

Turning to `Cc1cc2ncn(C3CC(=O)N(C)C3=O)c2cc1C` (centres undefined), the activation was inactive: -2.95%.

Consider `COc1ccc(CNC(=O)CCNC(=O)N2CCn3c2nc2ccccc23)cc1`, for which the activation is inactive: 4.71%.

As to `C=CCSc1nnc(NC(=O)Cn2cnc3c2c(=O)n(C)c(=O)n3C)s1`, the activation was inactive: 0.24%.

For the compound `Cn1c(=O)c2c(nc(NCc3ccccc3)n2CC(N)=O)n(C)c1=O`, the activation is inactive: -1.86%.

`CSc1nc(N)nc2c1ncn2CC(=O)NCCCN1CCCC1=O`: the activation is inactive: 2.9%.

On to `Cc1ccc2c(c1)C1CN(C)CCC1N2C(=S)Nc1ccc(Cl)cc1Cl` (centres undefined), for which the activation was inactive: 2.32%.

On to `Cc1nc2ccccc2n1C1CCN(Cc2nnnn2CCc2ccccc2)CC1`, for which the activation was inactive: 6.53%.

`Oc1ccccc1CNc1nc2ccccc2n1CCN1CCCCC1`: the activation was inactive: 3.54%.

As for `COC(=O)C1(C)COP(=O)(N2CCCCCC2)OC1` (centres undefined), the activation is inactive: -1.51%.

For the compound `CCC(C(=O)NC1CCCCC1)n1c(SCc2ccccc2F)nc2ccncc21` (centres undefined), the activation is inactive: 0.63%.

With `COC(=O)c1ccc(CNC(=O)Cn2cnc3c(SC)nc(N)nc32)cc1`, the activation is inactive: 1.86%.

`c1csc(CNc2nc3ccccc3n2CCN2CCOCC2)c1`: the activation was inactive: 3.22%.

For `CC(C)c1ccc(OP(=O)(Nc2ccccn2)Oc2ccccc2F)cc1` (centres undefined), the activation was inactive: 8.56%.

Regarding `N=c1n(CCN2CCCCC2)c2ccccc2n1CC(=O)c1cccc([N+](=O)[O-])c1`, the activation was inactive: 5.13%.

In the case of `CCC(=O)Nc1nc2ccccc2n1CCN(CC)CC`, the activation is inactive: 6.16%.

Take `COc1ccccc1NC(=O)N1CCn2c(nc3ccccc32)C1`: the activation is inactive: -1.35%.

For `Cn1c(=O)c2c(ncn2CC(=O)N2CCN(c3cccc(Cl)c3)CC2)n(C)c1=O`, the activation is inactive: 0.96%.

Regarding `CC(C)NC(=O)Cn1c(SCC(=O)c2ccc(F)cc2)nc2ccccc21`, the activation is inactive: -0.74%.

Consider `Cc1cc(C)c(CN2CCN(C(=O)Cn3cnc4c(NCc5ccccc5)ncnc43)CC2)c(C)c1`, for which the activation is inactive: 6.82%.

For `Cc1ccc2c(c1)C1CN(C)CCC1N2C(=O)CCCN1C(=O)c2cccc3cccc(c23)C1=O` (centres undefined), the activation was inactive: -1.76%.

`ClCCSc1nnc(-c2cccnc2)o1`: the activation was inactive: 3.63%.

Regarding `Cc1ccsc1/C=N/NC(=O)Cn1cnc2ccccc21`, the activation is inactive: -1.68%.

On to `CCOC(=O)CC[C@H](NC(=O)Cn1cnc2c(NCc3ccccc3)ncnc21)C(=O)OCC`, for which the activation was inactive: 2.82%.

Turning to `CC1(C)c2ccccc2N2CCC(=O)NC21/C=C/c1ccco1` (centres undefined), the activation was inactive: -2.57%.

On to `Cc1nc2ccccc2n1CC(=O)NCCN1CCCC1`, for which the activation is inactive: -1.05%.

Regarding `Cc1ccc(NC(=O)Cn2cnc3c(=O)n(C)c(=O)n(C)c32)c(C)c1`, the activation was inactive: -0.86%.

Turning to `CCC(=O)Nc1cccc(C(=O)/C=C/c2ccc(F)cc2)c1`, the activation was inactive: -6.33%.

In the case of `Cc1cccc(CSc2nc3ccncc3n2CC(=O)Nc2cc(C)cc(C)c2)c1`, the activation was inactive: 7.93%.

Take `Cn1c(=O)c2c(nc(CN3CCC(Cc4ccccc4)CC3)n2CCN2CCOCC2)n(C)c1=O`: the activation is inactive: 5.61%.

Turning to `CC1CCN(C(=O)Cn2cnc3c2c(=O)n(C)c(=O)n3C)c2ccccc2S1` (centres undefined), the activation is inactive: -6.75%.

With `Cc1ccc(Cn2nnnc2CN2CCC(n3nnc4cc(C)ccc43)CC2)cc1`, the activation was inactive: 6.39%.

`C[C@H](NC(=O)N1CCn2c1nc1ccccc12)C(=O)NC1CC1`: the activation was inactive: 1.74%.

Take `O=C(Cn1c(C(F)(F)F)nc2ccccc21)N1CCCC1`: the activation is inactive: 2.84%.

The values are drawn from PubChem BioAssay AID504692 (The Scripps Research Institute Molecular Screening Center, 2011).
